Source: US20250353842A1, “BICYCLIC AMINE CDK12 INHIBITORS” (Incyte Corporation, priority 2022, published 2025)

Protein sequences, listed by entry. Tags and fused reporters are not part of them.
UniProt Q9NYV4, whole entry: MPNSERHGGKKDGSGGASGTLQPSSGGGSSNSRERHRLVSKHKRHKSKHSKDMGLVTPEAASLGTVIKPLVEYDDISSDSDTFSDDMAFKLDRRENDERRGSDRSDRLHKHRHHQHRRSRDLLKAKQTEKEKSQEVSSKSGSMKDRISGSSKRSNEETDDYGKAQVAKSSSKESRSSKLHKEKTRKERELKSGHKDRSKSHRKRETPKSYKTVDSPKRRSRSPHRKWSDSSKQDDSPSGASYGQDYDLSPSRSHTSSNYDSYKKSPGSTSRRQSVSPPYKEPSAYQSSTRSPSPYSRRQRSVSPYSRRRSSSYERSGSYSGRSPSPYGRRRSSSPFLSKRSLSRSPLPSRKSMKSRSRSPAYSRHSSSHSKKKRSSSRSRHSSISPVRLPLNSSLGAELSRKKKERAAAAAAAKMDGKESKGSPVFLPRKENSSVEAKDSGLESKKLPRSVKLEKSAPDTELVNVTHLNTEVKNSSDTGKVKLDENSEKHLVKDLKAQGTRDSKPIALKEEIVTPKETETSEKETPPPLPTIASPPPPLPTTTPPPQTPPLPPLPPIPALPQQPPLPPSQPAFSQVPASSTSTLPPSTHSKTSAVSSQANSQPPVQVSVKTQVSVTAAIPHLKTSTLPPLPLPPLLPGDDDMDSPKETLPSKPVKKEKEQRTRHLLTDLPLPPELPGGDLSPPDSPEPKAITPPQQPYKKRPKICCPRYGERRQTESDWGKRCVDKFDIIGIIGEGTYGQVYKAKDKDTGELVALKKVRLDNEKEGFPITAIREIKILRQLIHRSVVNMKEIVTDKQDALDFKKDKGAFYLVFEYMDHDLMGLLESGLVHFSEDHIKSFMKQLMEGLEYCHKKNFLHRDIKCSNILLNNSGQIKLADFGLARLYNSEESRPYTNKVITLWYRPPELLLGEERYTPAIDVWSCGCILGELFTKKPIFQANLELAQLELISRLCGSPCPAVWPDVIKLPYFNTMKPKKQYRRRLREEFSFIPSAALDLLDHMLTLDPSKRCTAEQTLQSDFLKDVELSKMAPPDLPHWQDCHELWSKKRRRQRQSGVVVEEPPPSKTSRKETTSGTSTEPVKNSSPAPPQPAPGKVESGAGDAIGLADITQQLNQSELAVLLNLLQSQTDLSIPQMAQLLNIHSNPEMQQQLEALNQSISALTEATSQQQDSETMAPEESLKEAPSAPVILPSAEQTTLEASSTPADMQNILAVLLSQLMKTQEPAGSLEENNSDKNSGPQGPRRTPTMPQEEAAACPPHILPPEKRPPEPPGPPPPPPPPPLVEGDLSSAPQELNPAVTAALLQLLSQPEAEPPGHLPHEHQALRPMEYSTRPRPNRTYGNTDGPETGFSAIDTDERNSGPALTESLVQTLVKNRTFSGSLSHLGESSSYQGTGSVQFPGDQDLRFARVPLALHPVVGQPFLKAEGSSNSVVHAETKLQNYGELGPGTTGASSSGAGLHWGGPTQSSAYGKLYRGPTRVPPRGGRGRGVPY
UniProt O75909, whole entry partner: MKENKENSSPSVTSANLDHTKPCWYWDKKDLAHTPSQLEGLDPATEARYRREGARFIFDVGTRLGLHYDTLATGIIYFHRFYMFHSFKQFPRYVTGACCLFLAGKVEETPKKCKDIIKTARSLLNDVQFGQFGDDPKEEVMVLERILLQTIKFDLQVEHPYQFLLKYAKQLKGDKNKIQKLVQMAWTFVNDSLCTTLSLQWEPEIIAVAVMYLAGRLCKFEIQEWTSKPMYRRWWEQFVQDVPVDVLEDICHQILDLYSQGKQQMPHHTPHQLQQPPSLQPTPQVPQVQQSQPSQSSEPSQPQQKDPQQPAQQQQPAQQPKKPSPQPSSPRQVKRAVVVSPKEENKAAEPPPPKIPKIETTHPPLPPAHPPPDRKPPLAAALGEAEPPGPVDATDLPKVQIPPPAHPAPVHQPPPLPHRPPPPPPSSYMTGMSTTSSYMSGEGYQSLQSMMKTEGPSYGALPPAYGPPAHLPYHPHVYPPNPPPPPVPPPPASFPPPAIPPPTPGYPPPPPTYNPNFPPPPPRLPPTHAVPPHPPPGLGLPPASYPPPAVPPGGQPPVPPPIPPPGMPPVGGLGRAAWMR

Target: CDK12 complexed with Cyclin K (Homo sapiens (Human), UniProt Q9NYV4)
Assay: CDK enzymatic assay (HTRF, LANCE Ultra kinase assay)
Conditions: read-out: CDK12 IC50, 60 minutes pre-incubation, 1 mM ATP
Description: The following activity of the CDK enzymes in complex with their respective cyclins we assayed: CDK1 complexed with Cyclin B1; CDK2 complexed with Cyclin E1; CDK4 complexed with Cyclin D1; CDK6 complexed with Cyclin D1; CDK6 complexed with Cyclin D3; CDK9 complexed with Cyclin T1; CDK7 complexed with Cyclin H/MAT1; CDK2 complexed with Cyclin A2; CDK5 complexed with p35; CDK12 complexed with Cyclin K; CDK13 complexed with Cyclin K. These in vitro enzyme activity are assayed using homogeneous time-resolved energy transfer (HTRF), which measures phosphorylation of a peptide substrate. […] Each CDK enzyme activity assays utilized human CDK co-expressed as N-terminal GST-tagged protein with its full length cyclin partner using a baculovirus expression system. […]
The reaction was then incubated for 60-90 minutes at room temperature. […] HTRF signals were read after 15-120 minutes. A ratio of fluorescence transferred to the labeled substrate (665 nm) relative to fluorescence of the Europium donor (620 nm) represents the extent of phosphorylation. […] Normalized data was analyzed using a three or four parameter dose response curve to determine IC50 for each compound and are shown in Table A. Control reference inhibitors were included on each plate.

Structure (SMILES): CC(C)(CO)n1cc(-c2nc(N[C@@H]3CCC[C@H](n4cnc5cc(C#N)cnc54)C3)ncc2C#N)cn1
- IC50: < 0.05 µM

Structure (SMILES): FC(F)Cn1cc(-c2nc(N[C@@H]3CCC[C@H](n4cnc5ccncc54)C3)ncc2C(F)(F)F)cn1
- IC50: < 0.05 µM
